Laboratory results reported in ChEMBL document CHEMBL2086370 (J Med Chem, 2012).

Protein sequences, listed by entry. Tags and fused reporters are not part of them. Lines headed by an entry give the natural chain unless they say otherwise; changes in a name come on top.
UniProt P41146: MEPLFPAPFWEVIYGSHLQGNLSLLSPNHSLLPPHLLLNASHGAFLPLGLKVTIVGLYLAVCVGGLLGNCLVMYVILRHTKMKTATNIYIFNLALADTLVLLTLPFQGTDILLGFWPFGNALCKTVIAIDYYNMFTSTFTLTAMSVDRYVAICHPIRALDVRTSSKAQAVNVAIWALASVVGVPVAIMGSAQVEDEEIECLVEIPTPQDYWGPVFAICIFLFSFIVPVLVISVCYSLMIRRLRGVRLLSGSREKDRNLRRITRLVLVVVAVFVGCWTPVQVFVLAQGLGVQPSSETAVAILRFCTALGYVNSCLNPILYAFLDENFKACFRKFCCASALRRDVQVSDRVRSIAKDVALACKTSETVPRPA

Assays:
Nucleic Acid [1] = experiment: Ratio of drug level in hypothalamus to striatum in Harlan Sprague-Dawley rat at 6 ug/ml, iv up to 60 mins by LC-MS/MS analysis; conditions: in vivo, 1 h, strain Harlan Sprague-Dawley
Nociceptin receptor = Nociceptin receptor (Homo sapiens, UniProt P41146); experiment: Displacement of [3H]Nociceptin from human recombinant NOP receptor expressed in CHO cells by scintillation counter
[2] = Lipophilicity, log D of the compound at pH 7.4 by potentiometric method; conditions: buffer
Nucleic Acid [3] = experiment: Ratio of drug level in hypothalamus to striatum in Harlan Sprague-Dawley rat at 3 ug/kg, iv after 40 mins by LC-MS/MS analysis; conditions: in vivo, 0.003 mg/kg, strain Harlan Sprague-Dawley

Row | Compound | Ratio (Nucleic Acid [1]) | Ki (Nociceptin receptor) [nM] | further results
1 | CN(C)C(=O)C(Cc1ccccc1F)CN1CCC2(CC1)OCCc1cc(Cl)sc12.O=C(O)C(O)C(O)C(=O)O (stereo unspecified) | 1.9 | – | –
2 | CN(C(=O)C(Cc1ccccc1F)CN1CCC2(CC1)OCCc1cc(F)sc12)C1CC1 (single isomer, unassigned; (-)) | 1.8 | 0.0672 | –
3 | COC(=O)CN1CN(c2ccccc2)C2(CCN(Cc3cccc4ccccc34)CC2)C1=O | 3 | – | –
4 | ClCC(Cc1ccccc1Cl)CN1CCC2(CC1)OCCc1ccsc12 (stereo unspecified) | – | > 40 | –
5 | CN(C)C(=O)C(Cc1ccccc1Cl)CN1CCC2(CC1)OCCc1cc(Cl)sc12 (stereo unspecified) | – | 0.169 | –
6 | CN(C)C(=O)C(Cc1c(F)cccc1F)CN1CCC2(CC1)OCCc1ccsc12 (racemic) | – | > 10 | –
7 | CN(C)C(=O)C(Cc1ccccc1F)CN1CCC2(CC1)OCCc1cc(Cl)sc12 (stereo unspecified) | – | 0.0892 | –
8 | CN(C(=O)C(Cc1ccccc1Cl)CN1CCC2(CC1)OCCc1cc(F)sc12)C1CC1 (single isomer, unassigned; (-)) | 0.9 | 0.194 | –
9 | CCn1c(=O)n([C@@H]2CCN(CC3CCCCCCC3)C[C@H]2CO)c2ccccc21 | – | – | logD [2]: 3.36
10 | CN(C)C(=O)C(CN1CCC2(CC1)OCCc1cc(F)sc12)Cn1cccn1 (stereo unspecified) | – | 0.248 | –
11 | CN(C)C(=O)C(CN1CCC2(CC1)OCCc1cc(F)sc12)Cn1cccn1.O=C(O)C(O)C(O)C(=O)O (stereo unspecified) | 3.5 | – | –
12 | CN(C)C(=O)C(Cc1ccccc1Cl)CN1CCC2(CC1)OCCc1cc(F)sc12 (single isomer, unassigned; (+)) | – | 0.134 | Ratio (Nucleic Acid [3]): 2.2
13 | CN(C)C(=O)C(Cc1ccccc1)CN1CCC2(CC1)OCCc1ccsc12 (stereo unspecified) | – | 9.4 | –
14 | CN(C)C(=O)C(Cc1ccccc1F)CN1CCC2(CC1)OCCc1ccsc12 (racemic) | – | 5.16 | –
15 | COc1ccccc1CC(CN1CCC2(CC1)OCCc1ccsc12)C(=O)N(C)C (stereo unspecified) | – | > 10 | –
16 | CNC(=O)C(Cc1ccccc1Cl)CN1CCC2(CC1)OCCc1cc(Cl)sc12 (stereo unspecified) | 1.9 | 0.124 | –
17 | FCC(Cc1ccccc1Cl)CN1CCC2(CC1)OCCc1ccsc12 (stereo unspecified) | – | > 10 | –
18 | CN(C)C(=O)C(Cc1ccccc1F)CN1CCC2(CC1)OCCc1cc(F)sc12 (stereo unspecified) | – | 0.396 | –
19 | N#CC(Cc1ccccc1Cl)CN1CCC2(CC1)OCCc1ccsc12 (stereo unspecified) | – | > 40 | –
20 | NC(=O)C(Cc1ccccc1Cl)CN1CCC2(CC1)OCCc1cc(Cl)sc12 (stereo unspecified) | 1.5 | 0.0373 | –
21 | CNC(=O)Cn1c(=O)n(C2CCN([C@@H]3Cc4cccc5cccc3c45)CC2)c2ccccc21 | 0 | – | –
22 | CNC(=O)C(Cc1ccccc1F)CN1CCC2(CC1)OCCc1cc(Cl)sc12 (single isomer, unassigned; (-)) | 1.6 | 0.127 | –
23 | CN(C)C(=O)C(CN1CCC2(CC1)OCCc1ccsc12)Cn1cccn1.O=C(O)C(O)C(O)C(=O)O (stereo unspecified) | 0.8 | – | –
24 | COCC(Cc1ccccc1Cl)CN1CCC2(CC1)OCCc1ccsc12 (stereo unspecified) | – | > 40 | –
25 | CN(C)C(=O)C(Cc1ccccc1Cl)CN1CCC2(CC1)OCCc1cc(Cl)sc12.O=C(O)C(O)C(O)C(=O)O (stereo unspecified) | 2 | – | –
26 | CN(C)C(=O)[C@@H](Cc1ccccc1F)CN1CCC2(CC1)OCCc1cc(F)sc12.O=C(O)C(O)C(O)C(=O)O | – | – | Ratio (Nucleic Acid [3]): 3.5
27 | CN(C)C(=O)[C@@H](Cc1ccccc1F)CN1CCC2(CC1)OCCc1cc(F)sc12 | – | 0.114 | –
28 | CN(C)C(=O)C(Cc1ccccn1)CN1CCC2(CC1)OCCc1ccsc12 (stereo unspecified) | – | > 10 | –
29 | CN(C)C(=O)C(Cc1cscn1)CN1CCC2(CC1)OCc1ccc(F)cc12 (stereo unspecified) | 1.3 | 1.64 | –
